PMC10609148 (Molecules, 2023)

Molecular target: T1, Human Aβ(1–42)-HiLyte^TM-Fluor555 (human, UniProt P05067 672-713, HiLyte^TM-Fluor555 dye covalently bound to ASP1 (NH2-terminus amino acid))
T1 construct: Amyloid β peptide Aβ(1–42), human, cut product of the amyloid precursor protein; numbers count on: the Aβ peptide; source: bought: AnaSpec
Assay: other fluorescence titration; competition: 10 nM Aβ(1–42) HiLyte-Fluor555 preincubated 15 min with rising His6, then 5 nM calbindin-D28k added; attenuation of the maximum fluorescence increase; 50 mM HEPES, 100 mM KCl, 50 µM CaCl2, pH 7.05, 24–25 °C
Settings: both partners purified

binding result: binds
B1: human recombinant calbindin-D28k (natural protein, UniProt P05937 1-261, looked up)
chain: MAESHLQSSLITASQFFEIWLHFDADGSGYLEGKELQNLIQELQQARKKAGLELSPEMKTFVDQYGQRDDGKIGIVELAHVLPTEENFLLLFRCQQLKSCEEFMKTWRKYDTDHSGFIETEELKNFLKDLLEKANKTVDDTKLAEYTDLMLKLFDSNNDGKLELTEMARLLPVQENFLLKFQGIKMCGKEFNKAFELYDQDGNGYIDENELDALLKDLCEKNKQDLDINNITTYKKNIMALSDGGKLYRTDLALILCAGDN
